EP4821483A1, “SOLID DISPERSION INCLUDING HETEROCYCLE DERIVATIVE, METHOD FOR PREPARING SAME, AND PHARMACEUTICAL COMPOSITION INCLUDING SAME” (dated 2026)

Assay: Solubility in FaSSIF pH 6.5 eluate (Pion Micro-dissolution system)
Details: After 12 hours, 37±2 °C, 250 rpm, 20 mL media
Excerpt: For the obtained solid dispersion, the solubility was confirmed in a FaSSIF pH 6.5 eluate using a Pion Micro Diss instrument.

SMILES: CS(=O)(=O)[C@H]1CCOc2cc3sc(C(=O)Nc4cc(Cl)nc(Oc5ccc(Cl)cc5)c4)cc3cc21
- concentration of compound 1a dissolved in the FaSSIF pH 6.5 eluate: 39.16 µg/mL
